Test results from publication PMC2779710 (Journal of medicinal chemistry, 2009).
Marks after values point to notes of the source that are not given here.

Chains of the proteins cited; added tags and fusions are not shown. Lines headed by an entry give the natural chain unless they say otherwise; changes in a name come on top.
UniProt P30874: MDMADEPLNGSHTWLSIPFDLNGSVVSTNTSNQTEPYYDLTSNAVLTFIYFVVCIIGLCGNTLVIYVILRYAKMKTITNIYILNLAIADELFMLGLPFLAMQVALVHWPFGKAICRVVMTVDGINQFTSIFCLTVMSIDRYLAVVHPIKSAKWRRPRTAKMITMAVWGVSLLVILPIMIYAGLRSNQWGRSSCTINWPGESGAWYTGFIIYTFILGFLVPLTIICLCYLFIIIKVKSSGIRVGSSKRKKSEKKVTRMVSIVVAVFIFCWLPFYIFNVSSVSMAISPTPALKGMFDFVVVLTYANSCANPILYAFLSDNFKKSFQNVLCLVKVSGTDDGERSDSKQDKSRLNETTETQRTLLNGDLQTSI
UniProt P30872: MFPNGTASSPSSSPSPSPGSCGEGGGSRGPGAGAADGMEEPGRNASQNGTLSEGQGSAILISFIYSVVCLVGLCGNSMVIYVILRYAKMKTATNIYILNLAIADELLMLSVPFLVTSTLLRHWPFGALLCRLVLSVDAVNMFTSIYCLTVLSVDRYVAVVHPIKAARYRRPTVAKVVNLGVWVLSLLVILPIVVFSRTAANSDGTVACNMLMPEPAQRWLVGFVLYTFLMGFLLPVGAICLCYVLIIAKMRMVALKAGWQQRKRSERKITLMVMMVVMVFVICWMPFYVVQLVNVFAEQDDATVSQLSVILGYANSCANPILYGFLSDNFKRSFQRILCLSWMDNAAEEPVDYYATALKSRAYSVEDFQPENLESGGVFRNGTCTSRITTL

How the values were obtained:
[1] = target: Sst2-expressing tumors (Homo sapiens, UniProt P30874); assay type: binding; conditions: 8 cases
[2] = target: sst1-expressing human cancers (Homo sapiens, UniProt P30872); assay: Radioligand autoradiography on tumor tissue sections, binding displaceable by 33

[Leu^8,DTrp^22,^125ITyr^25]SRIF-28 [^125I-[LTT]-SRIF-28]
Incidence of binding displaceable by 33 [1]: 0/8 ^*
Incidence of binding displaceable by 33 ([2]; Bronchial Carcinoids, 6 cases): 6/6
Incidence of binding displaceable by 33 ([2]; Gastroenteropancreatic Tumors, 4 cases): 4/4
Incidence of binding displaceable by 33 ([2]; Mesenchymal Tumors, 7 cases): 7/7
Incidence of binding displaceable by 33 ([2]; Prostate Cancer, 8 cases): 8/8
tumor labeling (total binding) ([2]; adjacent sections of sst1 receptor-expressing human prostate cancer): strong tumor labeling
